The nature of series [1]: Thioflavin T fluorescence. Particulars: 25 μg ml^−1. The class given is physicochemical. The method, then: Fluorescence of ThT-protein/peptide adducts was measured as follows. […] Fluorescence was measured at 485 nm upon excitation at 435 nm. Background signals from buffer, buffer with ThT and protein/peptide solution without ThT were subtracted from corresponding measurements with protein solution incubated with ThT. […] Fluorescence was measured in triplicate on a Hitachi F-4500 fluorescence spectrophotometer (Ltd., Tokyo, Japan).
Formulated protein therapeutics were obtained from the local hospital pharmacy and were used as supplied by the manufacturers. […] Lyophilized therapeutics were dissolved according to the manufacturers recommendations. […] Other protein therapeutics were only kept at 4° C., and assayed for the presence of cross-β structure conformation at shown time points. Enhancement in fluorescence of ThT and Congo red was measured with all formulated protein therapeutics. For this purpose, proteins were diluted to the indicated concentrations. […] Zinc-insulin was diluted tenfold in the activation assay, GH was diluted to a final concentration of 500 μg ml^−1. Activation of factor XII and prekallikrein by the therapeutics was tested in the chromogenic factor XII assay (see above). […] After coating, plates were blocked with Blocking Reagent (Roche Diagnostics, Almere, The Netherlands).
To prepare structurally altered ovalbumin (OVA) with amyloid cross-β structure conformation, purified OVA (Sigma, A-7641, lot 071k7094) was heated to 85° C. […] Native OVA (nOVA) and heat-denatured OVA (dOVA) were tested in the ThT fluorescence assay and in the Plg-activation assay. In the fluorescence assay and in the Plg-activation assay, 25 and 100 μg ml^−1 nOVA and dOVA were tested, respectively. […] In the ThT-fluorescence assay 25 μg ml^−1 nMSA and alkyl-MSA were tested, and in the Plg-activation assay 100 μg ml^−1 was tested. The presence of aggregates or fibrils was analyzed using TEM. […]
Protein therapeutics were obtained from the local hospital pharmacy and analyzed within the expiry limits as stated by the manufacturers.

Chains of the proteins cited; added tags and fusions are not shown. Residues count along the entry.
UniProt P00750, 36-562: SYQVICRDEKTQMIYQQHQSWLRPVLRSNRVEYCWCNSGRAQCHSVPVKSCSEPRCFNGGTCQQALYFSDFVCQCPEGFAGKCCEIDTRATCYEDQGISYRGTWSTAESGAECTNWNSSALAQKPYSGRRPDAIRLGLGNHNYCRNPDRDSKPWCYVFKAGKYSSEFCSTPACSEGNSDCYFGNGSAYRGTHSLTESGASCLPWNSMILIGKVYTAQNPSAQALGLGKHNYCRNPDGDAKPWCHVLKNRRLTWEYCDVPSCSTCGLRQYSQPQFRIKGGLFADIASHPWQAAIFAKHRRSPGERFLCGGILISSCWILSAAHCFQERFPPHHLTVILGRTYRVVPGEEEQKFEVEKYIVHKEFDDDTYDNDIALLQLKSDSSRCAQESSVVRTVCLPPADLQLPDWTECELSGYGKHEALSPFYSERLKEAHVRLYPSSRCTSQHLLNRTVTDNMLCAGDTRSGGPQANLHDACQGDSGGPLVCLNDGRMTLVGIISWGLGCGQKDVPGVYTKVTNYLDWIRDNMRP

The target of series [2] is T1, tPA (Homo sapiens, UniProt P00750).
T1 construct: purchased Boehringer-Ingelheim (Actilyse, Alteplase)
The series can be described thus: Plasminogen-activation assay (tPA-mediated Plg to Pls, S-2251). The class given is biochemical. Particulars: 100 μg ml^−1 protein. The procedure:
Plasmin (Pls) activity was assayed as described^7. Peptides and proteins that were tested for their stimulatory ability were regularly used at 100 μg ml^−1. […] Chromogenic substrate S-2251 (Chromogenix, Instrumentation Laboratory SpA, Milano, Italy) was used to measure Pls activity. Conversion of zymogen factor XII (#233490, Calbiochem, EMD Biosciences, Inc., San Diego, Calif.) to proteolytically active factor XII (factor XIIa) was assayed by measurement of the conversion of chromogenic substrate Chromozym-PK (Roche Diagnostics, Almere, The Netherlands) by kallikrein. Chromozym-PK was used at a concentration of 0.3 mM. Factor XII, human plasma prekallikrein (#529583, Calbiochem) and human plasma cofactor high-molecular weight kininogen (#422686, Calbiochem) were used at concentrations of 1 μg ml^−1. […] Assays were performed using microtiter plates (Costar, Cambridge, Mass., USA). Peptides and proteins were tested for their ability to activate factor XII. […] The conversion of Chromozym-PK was recorded kinetically at 37° C. for at least 60 minutes. […] With S-2222, activation of factor XII in plasma was measured, using 60% v/v plasma, diluted with substrate and H2O with or without potential cofactor. Furthermore, auto-activation of factor XII was measured by incubating 53 μg ml^−1 purified factor XII in 50 mM Tris-HCl buffer pH 7.5 with 1 mM EDTA and 0.001% v/v Triton-X100, with S-2222 and H2O with or without potential cofactor.
Formulated protein therapeutics were obtained from the local hospital pharmacy and were used as supplied by the manufacturers. […] Enhancement in fluorescence of ThT and Congo red was measured with all formulated protein therapeutics. […]
To prepare structurally altered ovalbumin (OVA) with amyloid cross-β structure conformation, purified OVA (Sigma, A-7641, lot 071k7094) was heated to 85° C. […] Native OVA (nOVA) and heat-denatured OVA (dOVA) were tested in the ThT fluorescence assay and in the Plg-activation assay. In the fluorescence assay and in the Plg-activation assay, 25 and 100 μg ml^−1 nOVA and dOVA were tested, respectively. […]

On to “heat-denatured MSA: murine serum albumin heat denatured at 85° C.”, for which the “ThT fluorescence enhancement of native and denatured proteins” value (from here on “ThT fluorescence enhancement”) in series [1] was “enhance ThT fluorescence to a similar extent”. Moreover, the “stimulation of tPA-mediated conversion of Plg to Pls” value (shortened to “stimulation”) in series [2] is “differ in tPA activating potential”.

For “alkylated MSA: reduced-alkylated murine serum albumin”, in series [1], the “ThT fluorescence enhancement” value is given as “enhance ThT fluorescence to a similar extent”. Further, the “stimulation” value in series [2] is reported as “differ in tPA activating potential”.

Consider native MSA: native murine serum albumin, for which, in series [1], the “ThT fluorescence enhancement” value is on record as “enhanced ThT fluorescence to some extent”. In addition, in series [2], the “stimulation” value is on record as “not reflected by stimulation of tPA activation”.

The values are drawn from US20080207488A1, “Method for Detecting Peptides Comprising a Cross-B Structure” (priority 2005, published 2008).
